Test results taken from PMC12018053 (Biochemistry and Biophysics Reports, 2025).

The chains behind the UniProt entries cited, without tags or fusion partners.
UniProt P34913, whole entry: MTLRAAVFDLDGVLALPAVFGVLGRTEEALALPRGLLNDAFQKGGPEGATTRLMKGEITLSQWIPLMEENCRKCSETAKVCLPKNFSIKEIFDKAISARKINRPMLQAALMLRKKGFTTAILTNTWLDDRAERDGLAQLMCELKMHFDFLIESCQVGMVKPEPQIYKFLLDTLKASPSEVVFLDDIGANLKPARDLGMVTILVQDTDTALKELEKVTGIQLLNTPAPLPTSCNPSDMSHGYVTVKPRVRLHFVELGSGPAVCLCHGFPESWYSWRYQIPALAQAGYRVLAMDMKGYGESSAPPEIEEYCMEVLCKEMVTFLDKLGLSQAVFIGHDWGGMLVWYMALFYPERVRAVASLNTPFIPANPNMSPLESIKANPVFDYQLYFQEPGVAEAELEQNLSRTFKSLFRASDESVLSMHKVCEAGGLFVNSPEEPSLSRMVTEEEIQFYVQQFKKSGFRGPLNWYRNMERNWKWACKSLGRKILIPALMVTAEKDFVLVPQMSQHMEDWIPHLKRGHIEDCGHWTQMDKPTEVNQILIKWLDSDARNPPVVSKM

Molecular target: Human sEH (Homo sapiens, UniProt P34913)
Test: sEH fluorescent-based inhibition assay
Assay type: biochemical

For O=C(Nc1ccc(-c2ccccn2)cc1)C1CCN(S(=O)(=O)c2ccccc2Cl)CC1 [Compound 4h, 1-((2-chlorophenyl)sulfonyl)-N-(4-(pyridin-2-yl)phenyl)piperidine-4-carboxamide], the IC50 was 1.7 nM.
